Amino acid sequences for entries named in this document (tags omitted). A change or cut given only in a name is not applied to a line headed by its entry.
UniProt O15379: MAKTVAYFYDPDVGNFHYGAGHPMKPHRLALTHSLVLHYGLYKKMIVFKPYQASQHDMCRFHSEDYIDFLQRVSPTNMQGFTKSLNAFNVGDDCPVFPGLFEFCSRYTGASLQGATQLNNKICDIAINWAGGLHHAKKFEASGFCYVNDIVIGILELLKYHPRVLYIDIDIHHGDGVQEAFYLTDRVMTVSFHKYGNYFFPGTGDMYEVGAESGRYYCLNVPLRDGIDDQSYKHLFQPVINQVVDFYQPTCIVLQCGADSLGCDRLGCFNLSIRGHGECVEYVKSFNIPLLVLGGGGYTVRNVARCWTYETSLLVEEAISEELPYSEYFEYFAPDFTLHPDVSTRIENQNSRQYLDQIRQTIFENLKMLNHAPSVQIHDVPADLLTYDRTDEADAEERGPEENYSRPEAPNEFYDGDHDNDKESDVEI

According to patent publication US20090325862A1, “Histone Deacetylase Inhibitors for the Treatment of Neurodegeneration” (priority 2006, published 2009):

Target: recombinant human HDAC3 enzyme (HDAC3(DAD) enzyme complex) (Homo sapiens, UniProt O15379)
Experiment: HDAC3 assay (Fluor-de-Lys fluorescence)

IC50: 40 µM
SMILES: CCCC(CCC)C(=O)O [Valproic acid, 2-propylpentanoic acid]
